Laboratory results from US7211395 (dated 2007).

Sequences of proteins named here, by UniProt entry; tags and fusion partners are left off. Residues count along the entry.
UniProt P07724, 25-608: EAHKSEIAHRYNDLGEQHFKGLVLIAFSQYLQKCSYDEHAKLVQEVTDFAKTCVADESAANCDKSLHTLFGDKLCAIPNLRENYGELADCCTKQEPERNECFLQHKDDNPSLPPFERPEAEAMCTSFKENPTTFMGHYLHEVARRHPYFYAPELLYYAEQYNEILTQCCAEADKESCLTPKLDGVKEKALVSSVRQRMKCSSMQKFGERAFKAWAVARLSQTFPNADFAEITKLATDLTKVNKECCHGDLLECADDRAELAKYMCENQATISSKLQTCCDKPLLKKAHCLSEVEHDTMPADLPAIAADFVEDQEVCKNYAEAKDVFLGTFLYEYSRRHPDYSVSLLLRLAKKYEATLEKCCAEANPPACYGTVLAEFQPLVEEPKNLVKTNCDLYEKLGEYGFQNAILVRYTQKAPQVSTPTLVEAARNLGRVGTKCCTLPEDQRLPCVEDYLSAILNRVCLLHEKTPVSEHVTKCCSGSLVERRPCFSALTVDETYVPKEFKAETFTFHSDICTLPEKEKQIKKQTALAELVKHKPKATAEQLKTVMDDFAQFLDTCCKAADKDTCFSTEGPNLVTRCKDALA
UniProt P02769, 25-607: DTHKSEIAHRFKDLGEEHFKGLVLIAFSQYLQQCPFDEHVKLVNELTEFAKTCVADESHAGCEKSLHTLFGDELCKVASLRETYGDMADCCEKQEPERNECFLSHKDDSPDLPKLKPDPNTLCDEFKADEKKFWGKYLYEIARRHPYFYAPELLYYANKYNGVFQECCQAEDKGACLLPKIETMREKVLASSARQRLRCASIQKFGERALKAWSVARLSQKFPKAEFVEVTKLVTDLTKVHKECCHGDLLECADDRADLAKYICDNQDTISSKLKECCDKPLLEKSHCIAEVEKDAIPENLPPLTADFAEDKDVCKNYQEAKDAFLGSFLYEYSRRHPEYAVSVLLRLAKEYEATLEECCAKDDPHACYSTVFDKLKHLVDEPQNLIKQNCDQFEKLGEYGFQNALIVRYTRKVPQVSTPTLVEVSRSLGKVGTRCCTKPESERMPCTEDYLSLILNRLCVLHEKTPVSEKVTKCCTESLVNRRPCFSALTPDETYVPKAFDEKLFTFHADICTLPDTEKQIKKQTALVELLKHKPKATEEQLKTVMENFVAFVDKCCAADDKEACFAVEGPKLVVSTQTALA

Tests used:
rhesus serum albumin [1] = biological target: T1, rhesus serum albumin (rhesus macaque, UniProt Q28522); assay: FP, pH 6.2, no NaCl
T1 chain: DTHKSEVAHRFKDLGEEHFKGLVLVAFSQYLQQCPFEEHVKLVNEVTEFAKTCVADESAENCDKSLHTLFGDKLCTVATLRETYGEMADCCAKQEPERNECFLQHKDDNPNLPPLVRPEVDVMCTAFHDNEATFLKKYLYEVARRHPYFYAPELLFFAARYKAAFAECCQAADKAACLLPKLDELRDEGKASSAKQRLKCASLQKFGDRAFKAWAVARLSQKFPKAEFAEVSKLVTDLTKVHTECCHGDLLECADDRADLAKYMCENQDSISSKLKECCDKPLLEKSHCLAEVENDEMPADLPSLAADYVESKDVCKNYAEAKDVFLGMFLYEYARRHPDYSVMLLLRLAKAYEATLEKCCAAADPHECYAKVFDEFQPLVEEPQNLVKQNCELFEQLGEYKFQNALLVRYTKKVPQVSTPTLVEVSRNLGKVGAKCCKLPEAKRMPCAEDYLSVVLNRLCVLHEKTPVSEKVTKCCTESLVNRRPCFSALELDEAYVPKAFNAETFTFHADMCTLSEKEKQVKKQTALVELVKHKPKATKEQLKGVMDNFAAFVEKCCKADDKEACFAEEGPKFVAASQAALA

mouse serum albumin [2] = biological target: T2, mouse serum albumin (mouse, UniProt P07724); assay: FP, pH 6.2, no NaCl
rat serum albumin [3] = biological target: T3, rat serum albumin (rat, UniProt P02770); assay: FP, pH 6.2, no NaCl
T3 chain: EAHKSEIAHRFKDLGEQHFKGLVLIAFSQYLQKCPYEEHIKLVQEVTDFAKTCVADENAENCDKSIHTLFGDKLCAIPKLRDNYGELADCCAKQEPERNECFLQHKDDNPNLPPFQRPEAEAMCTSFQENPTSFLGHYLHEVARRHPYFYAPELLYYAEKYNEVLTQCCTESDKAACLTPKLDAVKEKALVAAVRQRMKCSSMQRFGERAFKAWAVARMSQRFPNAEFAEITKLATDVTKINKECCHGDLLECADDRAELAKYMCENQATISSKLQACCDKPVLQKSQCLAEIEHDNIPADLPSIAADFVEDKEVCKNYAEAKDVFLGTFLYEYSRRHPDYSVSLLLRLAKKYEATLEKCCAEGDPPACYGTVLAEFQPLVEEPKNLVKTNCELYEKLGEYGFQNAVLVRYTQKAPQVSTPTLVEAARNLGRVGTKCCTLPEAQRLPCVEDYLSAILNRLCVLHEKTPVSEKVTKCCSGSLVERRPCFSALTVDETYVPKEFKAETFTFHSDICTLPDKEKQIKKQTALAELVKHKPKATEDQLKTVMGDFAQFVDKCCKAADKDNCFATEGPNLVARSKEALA

[4] = biological target: T4, human serum albumin (HSA) (human, UniProt P02768); assay: FP, pH 6.2, no NaCl
rhesus serum albumin [5] = biological target: T1, rhesus serum albumin; assay: FP, PBS pH 7.4
[6] = biological target: T4, human serum albumin (HSA); assay: FP, pH 6.2, no NaCl; remark: listed apart in the source
rat serum albumin [7] = biological target: T3, rat serum albumin; assay: FP, PBS pH 7.4
[8] = biological target: T4, human serum albumin (HSA); assay: FP, pH 6.2, no NaCl; remark: listed apart in the source
pig serum albumin = biological target: T5, pig serum albumin (pig, UniProt P08835); assay: FP, PBS pH 7.4
T5 chain: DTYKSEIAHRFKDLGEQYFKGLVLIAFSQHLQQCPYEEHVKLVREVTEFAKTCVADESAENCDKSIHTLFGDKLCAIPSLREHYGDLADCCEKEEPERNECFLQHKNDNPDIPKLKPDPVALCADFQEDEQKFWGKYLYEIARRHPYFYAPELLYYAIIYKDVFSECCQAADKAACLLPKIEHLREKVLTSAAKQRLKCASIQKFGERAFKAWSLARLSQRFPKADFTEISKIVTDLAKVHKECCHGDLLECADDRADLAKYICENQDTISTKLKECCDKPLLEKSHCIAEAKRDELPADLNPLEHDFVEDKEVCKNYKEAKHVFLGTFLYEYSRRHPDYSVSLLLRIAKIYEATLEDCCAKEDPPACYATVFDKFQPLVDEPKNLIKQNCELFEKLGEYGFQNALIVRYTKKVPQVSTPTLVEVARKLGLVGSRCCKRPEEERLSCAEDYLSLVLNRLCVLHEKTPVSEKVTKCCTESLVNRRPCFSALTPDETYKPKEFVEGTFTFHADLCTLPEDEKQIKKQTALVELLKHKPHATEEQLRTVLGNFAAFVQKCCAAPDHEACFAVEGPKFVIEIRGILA

rabbit serum albumin = biological target: T6, rabbit serum albumin (rabbit, UniProt P49065); assay: FP, PBS pH 7.4
T6 chain: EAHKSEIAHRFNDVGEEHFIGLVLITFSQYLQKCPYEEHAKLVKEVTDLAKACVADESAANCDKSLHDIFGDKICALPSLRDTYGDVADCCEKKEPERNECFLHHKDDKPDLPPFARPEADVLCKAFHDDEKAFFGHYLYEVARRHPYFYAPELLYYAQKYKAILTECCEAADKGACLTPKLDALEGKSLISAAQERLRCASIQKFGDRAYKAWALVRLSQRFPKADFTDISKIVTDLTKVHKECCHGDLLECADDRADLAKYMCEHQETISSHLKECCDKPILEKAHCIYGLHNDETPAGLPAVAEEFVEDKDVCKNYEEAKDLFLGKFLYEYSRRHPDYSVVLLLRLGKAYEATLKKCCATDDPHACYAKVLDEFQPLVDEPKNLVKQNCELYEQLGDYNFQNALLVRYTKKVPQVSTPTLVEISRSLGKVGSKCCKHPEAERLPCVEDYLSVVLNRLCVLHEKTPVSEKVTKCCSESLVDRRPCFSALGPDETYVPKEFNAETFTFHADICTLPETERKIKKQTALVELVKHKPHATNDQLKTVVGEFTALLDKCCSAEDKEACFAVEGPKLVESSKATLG

[9] = biological target: T4, human serum albumin (HSA); assay: FP
[10] = biological target: T4, human serum albumin (HSA); assay: FP, pH 7.4, 0.14 M NaCl
bovine serum albumin [11] = biological target: T7, bovine serum albumin (bovine, UniProt P02769); assay: FP, pH 6.2, no NaCl
mouse serum albumin [12] = biological target: T2, mouse serum albumin; assay: FP, PBS pH 7.4
bovine serum albumin [13] = biological target: T7, bovine serum albumin; assay: FP, PBS pH 7.4
[14] = biological target: T4, human serum albumin (HSA); assay: FP, PBS pH 7.4

B1: DX-236 (peptide)
chain: AEGTGDFWFCDRIAWYPQHLCEFLDPEGGGK
modifications: disulfide cyclic, N-acetyl, C-amide, fluorescein on Lys; also SEQ32
Kd (rhesus serum albumin [1]): 1.1 µM | Kd (mouse serum albumin [2]): 5.5 µM | Kd (rat serum albumin [3]): 1.6 µM | Kd [4]: 1.9 µM | Kd (rhesus serum albumin [5]): 23 µM | Kd [6]: 1.7 µM | Kd (rat serum albumin [7]): 25 µM | Kd [8]: 1.9 µM | Kd (pig serum albumin): 12 µM | Kd (rabbit serum albumin): 18 µM | Kd [9]: 1.9 µM | Kd [10]: 11 µM | Kd (bovine serum albumin [11]): 1.1 µM | Kd (mouse serum albumin [12]): 32 µM | Kd (bovine serum albumin [13]): 13.3 µM | Kd [14]: 11 µM
